Chains of the proteins cited; added tags and fusions are not shown.
UniProt P08183, whole entry: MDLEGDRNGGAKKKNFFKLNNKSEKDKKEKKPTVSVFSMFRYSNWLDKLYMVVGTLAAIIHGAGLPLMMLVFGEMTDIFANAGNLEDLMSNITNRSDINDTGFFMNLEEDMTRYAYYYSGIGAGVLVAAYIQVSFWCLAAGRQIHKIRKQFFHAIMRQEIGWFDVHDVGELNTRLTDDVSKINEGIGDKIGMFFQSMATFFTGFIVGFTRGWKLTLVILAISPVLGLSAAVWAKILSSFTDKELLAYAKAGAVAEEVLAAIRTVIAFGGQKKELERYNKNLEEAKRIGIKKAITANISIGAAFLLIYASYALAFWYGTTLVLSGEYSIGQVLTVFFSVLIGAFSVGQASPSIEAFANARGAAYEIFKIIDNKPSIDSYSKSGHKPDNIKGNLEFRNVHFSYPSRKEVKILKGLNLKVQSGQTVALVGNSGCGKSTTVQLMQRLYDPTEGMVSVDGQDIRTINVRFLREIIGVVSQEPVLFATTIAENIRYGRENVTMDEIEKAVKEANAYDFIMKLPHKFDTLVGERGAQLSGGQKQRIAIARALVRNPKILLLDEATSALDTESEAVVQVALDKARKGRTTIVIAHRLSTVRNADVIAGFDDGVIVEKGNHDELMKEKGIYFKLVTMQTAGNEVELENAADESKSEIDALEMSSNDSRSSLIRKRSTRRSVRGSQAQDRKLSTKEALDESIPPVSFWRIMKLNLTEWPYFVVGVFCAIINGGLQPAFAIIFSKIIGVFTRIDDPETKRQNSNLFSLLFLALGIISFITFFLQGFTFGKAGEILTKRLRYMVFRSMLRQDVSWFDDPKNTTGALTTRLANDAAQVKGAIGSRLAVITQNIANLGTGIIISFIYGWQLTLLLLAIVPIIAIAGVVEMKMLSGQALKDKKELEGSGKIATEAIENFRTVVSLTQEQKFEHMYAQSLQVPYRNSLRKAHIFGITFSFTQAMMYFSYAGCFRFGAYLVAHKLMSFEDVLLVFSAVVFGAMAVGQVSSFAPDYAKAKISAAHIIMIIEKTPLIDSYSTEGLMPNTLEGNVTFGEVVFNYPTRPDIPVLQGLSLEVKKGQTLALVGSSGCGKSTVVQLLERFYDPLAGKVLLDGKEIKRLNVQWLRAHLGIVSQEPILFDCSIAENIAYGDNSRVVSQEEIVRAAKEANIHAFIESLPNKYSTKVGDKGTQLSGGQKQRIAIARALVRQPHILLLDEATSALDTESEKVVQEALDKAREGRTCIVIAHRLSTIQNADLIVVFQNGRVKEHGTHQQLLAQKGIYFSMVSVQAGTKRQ

According to patent publication US20090176817A1, “Method of Treatment of Diarrhea-Predominant Irritable Bowel Syndrome in a Subject” (priority 2005, published 2009):

Molecular target: T1, human P-glycoprotein (Homo sapiens, UniProt P08183)
T1 construct: expressed in transfected cells; host or cells: PK 1 LLC MDR cells (LLC-PK1 porcine kidney cells expressing human MDR1, by own knowledge)
Assay: Study K.241.6026: in vitro transport by P-glycoprotein in PK 1 LLC MDR cells
Type: in vitro ADME
Settings: 3 hours of incubation
Experimental: Cilansetron easily passes biological membranes, probably including the blood-brain barrier. […] Much higher concentrations, above 1000 ng/mL, were required to saturate P-glycoprotein in vitro.

## O=C(NCCN1CCN(c2cccc3c2OC[C@H](CO)O3)CC1)c1ccc(F)cc1 [DU 29373, reference compound]
Arithmetic mean percentages transported
  Membrane Passage: 30%
Ratio of percentages transported
  P-gp Factor: 7
